The text below walks through data of US4528290A, “Stimulating dopamine D-1 receptors” (Eli Lilly and Company, priority 1984, dated 1985).

Sequences of proteins named here, by UniProt entry; tags and fusion partners are left off.
UniProt P18901, whole entry: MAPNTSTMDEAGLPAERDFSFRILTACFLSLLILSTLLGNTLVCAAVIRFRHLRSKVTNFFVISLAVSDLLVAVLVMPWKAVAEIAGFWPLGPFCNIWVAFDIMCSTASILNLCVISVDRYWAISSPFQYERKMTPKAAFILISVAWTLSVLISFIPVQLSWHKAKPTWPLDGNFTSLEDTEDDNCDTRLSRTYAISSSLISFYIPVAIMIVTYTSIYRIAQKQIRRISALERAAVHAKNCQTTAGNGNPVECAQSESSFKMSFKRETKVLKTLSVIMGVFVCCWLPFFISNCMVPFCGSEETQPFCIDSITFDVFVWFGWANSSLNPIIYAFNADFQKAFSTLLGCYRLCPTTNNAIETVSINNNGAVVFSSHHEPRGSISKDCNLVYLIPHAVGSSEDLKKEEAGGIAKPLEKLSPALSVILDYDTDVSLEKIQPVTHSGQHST

Assay [1] concerns the target dopamine D-1 receptors (adenylate cyclase in rat striatal membrane) (Rattus norvegicus, UniProt P18901). Particulars: Table 1, p<0.025.
Assay [2] deals with dopamine D-1 receptors (cyclic AMP efflux, striatal tissue). Put plainly: tissue or blood. On the procedure: A second, particularly sensitive indicator of D-1 agonist activity is the determination of the cyclic AMP efflux in tissue slices using a procedure based on Stoof and Kebabian (loc. cit). In this procedure, striatal tissue is dissected from rat brains and chopped into 0.3 mm.×[…]. fragments. The tissue fragments are suspended in the appropriate buffer system (Earl's balanced salt solution, for example) and the suspension is continuously aerated with 95:5 O2 /CO2 while being maintained at 37° C. Just prior to use, the tissue fragments are transferred to fresh media to which is added bovine serum albumin (2.5 mg./ml.) and 3-isobutyl-1-methylxanthine (1 millimolar) to block degradation of cyclic AMP. The tissue fragments are incubated in buffer without drugs and are then transferred to the same media with added drug. Aliquots of incubation media, with and without drugs, are assayed for cyclic AMP concentration by a specific radioimmunoassay. The effect of the drug or drugs on efflux is expressed as a percentage of the resting efflux. The following medium was employed:
Sulpiride is known to be an antagonist on pituitary D-2 receptors. Addition of sulpiride to a test system, such as that described above, blocks any D-2 effect of a drug in reducing cyclic AMP production.

Where [3] appears, read: A 5 × 10^-7 M plus sulpiride at 10^-6 M.
[4] abbreviates: Rattus norvegicus, read-out: % Increase in Cyclic AMP.

Structures are written as SMILES. Where a name gives a salt, the structure may show the parent alone.

For the molecule `CCCN1CCC[C@H]2Cc3[nH]ncc3C[C@@H]21` [4aS, 8aS enantiomer, 4aS,8aS-5-n-propyl-4,4a,5,6,7,8,8a,9-octahydro-1H(and 2H)-pyrazolo[3,4-g]quinoline], the D-2 agonist activity entry in the assay on dopamine D-2 receptors is listed as “without D-2 agonist activity”. Moreover, in assay [1], the “significance of increase in cyclic AMP formation (D-1 agonist activity)” value is recorded as “significantly increased cyclic AMP formation”.
As to `CCCN1CCC[C@H]2Cc3[nH]ncc3C[C@@H]21` [A, 4aS,8aS-5-n-propyl-4,4a,5,6,7,8,8a,9-octahydro-1H(and 2H)-pyrazolo[3,4-g]quinoline dihydrochloride], in assay [2] (5 × 10^-6 M, rat striatal tissue fragments), the “Cyclic AMP Concentration” value turned out to be 160.1 ± 23.8. Besides, in assay [2] (5 × 10^-7 M, rat striatal tissue fragments), the “Cyclic AMP Concentration” value was 131.0 ± 9.2. Also, in assay [2] (setting [3]), the “% Increase in Cyclic AMP” value came out at 100% and the “Cyclic AMP Concentration” value is given as 143.7 ± 6.2. Moreover, in assay [2] (setting [4]), the activation at 0.5 µM came out at 83% and the activation at 5 µM was 124%.
